Target: human Kv1.5 channel (Homo sapiens, UniProt P22460)
Experiment: Test A: Rb+ efflux assay
Type: cell-based
Settings: CHO cells stably transfected with cDNA for human Kv1.5
Method: This assay identifies compounds that block the human Kv1.5 channel potassium channel heterologously expressed in Chinese Hamster Ovary (CHO) cells by means of Rb+ ion efflux using Flame Atomic Absorption Spectroscopy. For experimental studies, CHO cells stably transfected with cDNA for human Kv1.5 were grown as confluent layers in Falcon, 384-well tissue culture-treated black-walled clear-bottomed plates and the plates were incubated overnight at 37° C. in a cell culture incubator.
After incubating overnight the cell plates were washed and a buffer containing Rb+ ions were added to the cell plates. The plates were then incubated for another 3-4 hours in a CO2-incubator (37° C.). Following this incubation period plates were washed, compounds were added and subsequently a buffer containing elevated K+ concentrations were added in order to activate the Kv1.5 channel. Following a short incubation time, aliquots of the supernatants were transferred to supernatant plates for subsequent determination of the Rb+ content using Atomic Absorption Spectrometry (ICR8000 instrument, Aurora Biomed Inc.). The basal Rb+ efflux (conc. mg/L in wells receiving only wash buffer) was defined as 100% inhibition and the stimulated Rb+ efflux (conc. mg/L in wells receiving only buffer containing elevated concencentrations of K^+ ions) was defined as 0% inhibition.

Chains of the proteins cited; added tags and fusions are not shown.
UniProt P22460, whole entry: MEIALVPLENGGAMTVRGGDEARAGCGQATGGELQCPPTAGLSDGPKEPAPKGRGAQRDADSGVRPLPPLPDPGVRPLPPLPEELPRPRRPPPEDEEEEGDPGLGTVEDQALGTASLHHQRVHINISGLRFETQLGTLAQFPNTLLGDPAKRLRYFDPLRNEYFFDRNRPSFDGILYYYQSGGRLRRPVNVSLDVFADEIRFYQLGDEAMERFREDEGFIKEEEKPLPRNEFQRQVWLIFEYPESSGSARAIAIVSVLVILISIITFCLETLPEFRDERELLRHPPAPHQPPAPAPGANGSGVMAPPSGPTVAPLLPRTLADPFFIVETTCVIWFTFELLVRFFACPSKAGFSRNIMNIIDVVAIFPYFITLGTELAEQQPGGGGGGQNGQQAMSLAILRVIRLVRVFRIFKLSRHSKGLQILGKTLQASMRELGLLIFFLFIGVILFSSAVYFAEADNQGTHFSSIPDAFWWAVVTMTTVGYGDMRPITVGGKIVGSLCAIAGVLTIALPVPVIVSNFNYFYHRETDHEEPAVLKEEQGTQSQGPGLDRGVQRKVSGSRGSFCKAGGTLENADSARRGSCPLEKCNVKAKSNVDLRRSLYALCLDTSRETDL

## CC(C)(C)NC(=O)C1c2ccccc2C(=O)N1Cc1ccccc1-c1ccccc1 (stereo not shown) [2-(biphenyl-2-ylmethyl)-N-tert-butyl-3-oxoisoindoline-1-carboxamide]
  IC50: 3.3 µM

— patent US20080015237A1 (ASTRAZENECA AB, priority 2006, published 2008)
